Laboratory results published in patent US7326768B2, “Goodpasture antigen-binding protein isoforms and protein misfolded-mediated disorders” (priority 2003, dated 2008).

What was measured:
[1] = tested on: α3(IV)NC1-expressing cells (HEK293); assay: α3(IV)NC1 conformer production in cultured cells (Western blot of culture media); type: cell-based, human; conditions: synthetic peptides 100-200 μM, organic compounds 5-50 μM, 24-48 h
[2] = tested on: NZW mice; assay: Degenerative glomerulopathy in NZW mice (histochemical studies of kidney); type: in vivo; conditions: NZW treated with DAB-Am-4 and peptide 20 μg/g i.p.

## CC[C@@H](C)[C@@H](NC(=O)[C@@H](CS)NC(=O)[C@@H](Cc1c[nH]cn1)NC(=O)[C@@H](CO)NC(=O)[C@@H](CC(C)C)NC(=O)[C@H](NC(=O)[C@@H](C)NC(=O)[C@@H](CC(C)C)NC(C)=O)[C@H](C)O)C(=O)N[C@H](CCC(=O)O)C(=O)N[C@H](CC(C)C)C(=O)N[C@H](CCSC)C(=O)N[C@@H](C(=O)N[C@H](CCCCN)C(=O)N[C@H](CCCNC(=N)N)C(N)=O)C(C)C [Q2D]
[1]
  α3(IV)NC1 conformer production in cultured cells: more efficient inhibiting
[2]
  material deposited in the glomerulus of suspected collagenous nature: significantly more effective than the L-amino acid version
